B1: BCY9391 with fluorescein appended to the C-terminus with a Sar6-Lysine linker (peptide)
peptide: ACGAPCRPHYVPWFCA
modifications: Ci, Cii and Ciii cyclised with TATA scaffold; fluorescein appended to the C-terminus with a Sar6-Lysine linker
notes: Bicyclic peptide
B2: BCY9381 with fluorescein appended to the C-terminus with a Sar6-Lysine linker (peptide)
peptide: ACHPRHQEGYCMPCA
modifications: Ci, Cii and Ciii cyclised with TATA scaffold; fluorescein appended to the C-terminus with a Sar6-Lysine linker
notes: Bicyclic peptide
B3: BCY9382 with fluorescein appended to the C-terminus with a Sar6-Lysine linker (peptide)
peptide: ACYNHKWGAMCTHPCA
modifications: Ci, Cii and Ciii cyclised with TATA scaffold; fluorescein appended to the C-terminus with a Sar6-Lysine linker
notes: Bicyclic peptide
B4: BCY9384 with fluorescein appended to the C-terminus with a Sar6-Lysine linker (peptide)
peptide: ACDIYRECHYTSWSVCA
modifications: Ci, Cii and Ciii cyclised with TATA scaffold; fluorescein appended to the C-terminus with a Sar6-Lysine linker
notes: Bicyclic peptide
B5: BCY9385 with fluorescein appended to the C-terminus with a Sar6-Lysine linker (peptide)
peptide: ACKPSLSCQHLPRALCA
modifications: Ci, Cii and Ciii cyclised with TATA scaffold; fluorescein appended to the C-terminus with a Sar6-Lysine linker
notes: Bicyclic peptide
B6: BCY9386 with fluorescein appended to the C-terminus with a Sar6-Lysine linker (peptide)
peptide: ACPFTGPCRPHYICA
modifications: Ci, Cii and Ciii cyclised with TATA scaffold; fluorescein appended to the C-terminus with a Sar6-Lysine linker
notes: Bicyclic peptide
B7: BCY9387 with fluorescein appended to the C-terminus with a Sar6-Lysine linker (peptide)
peptide: ACYTSCPEHHVFACA
modifications: Ci, Cii and Ciii cyclised with TATA scaffold; fluorescein appended to the C-terminus with a Sar6-Lysine linker
notes: Bicyclic peptide

target: T1, S. pneumoniae PBP1a (S. pneumoniae, UniProt Q04707 37-719, limits assumed); assay: fluorescence polarisation direct binding; fluorescein-labelled peptide, PBP titrated; settings: not given
T1 sequence (looked up): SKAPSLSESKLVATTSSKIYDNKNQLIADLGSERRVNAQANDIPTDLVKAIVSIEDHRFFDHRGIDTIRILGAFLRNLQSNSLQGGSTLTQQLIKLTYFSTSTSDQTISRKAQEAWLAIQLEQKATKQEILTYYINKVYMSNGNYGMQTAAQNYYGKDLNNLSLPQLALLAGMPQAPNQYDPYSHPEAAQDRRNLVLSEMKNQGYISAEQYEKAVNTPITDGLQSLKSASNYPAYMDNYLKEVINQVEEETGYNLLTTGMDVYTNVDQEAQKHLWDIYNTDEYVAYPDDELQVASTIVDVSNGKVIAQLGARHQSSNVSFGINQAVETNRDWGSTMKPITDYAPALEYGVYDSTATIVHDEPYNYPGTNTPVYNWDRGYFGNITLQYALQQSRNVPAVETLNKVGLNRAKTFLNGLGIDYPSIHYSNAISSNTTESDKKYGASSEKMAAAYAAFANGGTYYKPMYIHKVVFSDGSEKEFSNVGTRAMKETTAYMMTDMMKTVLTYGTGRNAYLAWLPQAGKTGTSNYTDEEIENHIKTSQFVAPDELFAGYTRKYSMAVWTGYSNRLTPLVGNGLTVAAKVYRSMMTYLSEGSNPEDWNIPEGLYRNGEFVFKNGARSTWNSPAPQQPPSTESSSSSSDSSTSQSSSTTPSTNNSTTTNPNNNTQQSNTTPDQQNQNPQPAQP

Compared with B1, B2 is 8.8-fold higher in Kd: 450 nM for the first, 3950 nM for the second.

Compared with B3, B4 is 1.8-fold lower in Kd: 2370 nM for the first, 1320 nM for the second.

B5 and B6 are within 1.5-fold of each other in Kd: 1020 nM for the first, 870 nM for the second.

For B7, the Kd was 3140 nM.

target: T1, S. pneumoniae PBP1a; assay: fluorescence polarisation competition; unlabelled peptide against the competitor fluorescein-labelled BCY9378 tracer, PBP at 800 nM; settings: not given

First: ACPPVCRPHYVHWMCA (Ci, Cii and Ciii cyclised with TATA scaffold, Bicyclic peptide) [BCY10028 (unlabelled, unmodified peptide)]
Second: ACPVGCRPHYVHWSCA (Ci, Cii and Ciii cyclised with TATA scaffold, Bicyclic peptide) [BCY10027 (unlabelled, unmodified peptide)]
The Ki of the first is 5.6-fold higher: 614 nM for the first, 110 nM for the second.

Compared with ACRYTSCPPYTVCA (Ci, Cii and Ciii cyclised with TATA scaffold, Bicyclic peptide) [BCY10026 (unlabelled, unmodified peptide)], ACPYTSCPPYTHCA (Ci, Cii and Ciii cyclised with TATA scaffold, Bicyclic peptide) [BCY10025 (unlabelled, unmodified peptide)] is 8.3-fold lower in Ki: 555 nM for the first, 66.7 nM for the second. The second binds more tightly here.

Compared with ACPYTTCPPYHACA (Ci, Cii and Ciii cyclised with TATA scaffold, Bicyclic peptide) [BCY10024 (unlabelled, unmodified peptide)], ACVFTTCPPYTVCA (Ci, Cii and Ciii cyclised with TATA scaffold, Bicyclic peptide) [BCY10022 (unlabelled, unmodified peptide)] is 6-fold higher in Ki: 196 nM for the first, 1170 nM for the second. The first binds more tightly here.

ACTYTTCPPFTICA (Ci, Cii and Ciii cyclised with TATA scaffold, Bicyclic peptide) [BCY10020 (unlabelled, unmodified peptide)] showed a Ki of 602 nM.

target: T2, S. pneumoniae PBP1a (Streptococcus pneumoniae, UniProt Q8DR59); assay: Fluorescence polarisation direct binding assay, PBP 1a; settings: PBP Tested 1a; fluorescein-labelled peptide (Sar6-Lysine linker, C-terminus)
T2 sequence (Q8DR59 1-719): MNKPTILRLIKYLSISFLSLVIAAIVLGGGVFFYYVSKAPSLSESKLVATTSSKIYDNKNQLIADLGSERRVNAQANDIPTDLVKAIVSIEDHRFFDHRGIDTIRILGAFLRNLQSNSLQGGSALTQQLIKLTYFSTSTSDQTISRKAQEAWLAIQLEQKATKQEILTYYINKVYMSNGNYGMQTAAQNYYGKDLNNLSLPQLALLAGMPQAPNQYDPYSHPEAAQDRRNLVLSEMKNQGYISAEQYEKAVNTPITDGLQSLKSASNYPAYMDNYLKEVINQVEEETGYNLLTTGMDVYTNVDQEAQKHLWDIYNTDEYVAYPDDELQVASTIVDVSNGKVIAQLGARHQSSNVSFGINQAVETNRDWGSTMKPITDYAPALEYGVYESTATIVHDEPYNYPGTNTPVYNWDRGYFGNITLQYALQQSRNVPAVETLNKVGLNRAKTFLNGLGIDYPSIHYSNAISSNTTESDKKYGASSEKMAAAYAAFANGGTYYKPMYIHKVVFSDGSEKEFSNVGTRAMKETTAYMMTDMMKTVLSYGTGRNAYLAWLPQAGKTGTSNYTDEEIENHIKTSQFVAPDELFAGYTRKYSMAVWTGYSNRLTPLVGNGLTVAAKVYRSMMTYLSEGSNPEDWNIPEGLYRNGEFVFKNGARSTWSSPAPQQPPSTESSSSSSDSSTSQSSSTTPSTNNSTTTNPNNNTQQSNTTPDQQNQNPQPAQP
Method: Fluorescence polarisation was carried out using fluorescein-labelled peptides with unmodified PBP protein and measured using a PHERAstar FS by BMG Labtech fitted with a FP 485 520 520 optic module.
Fluorescent peptides at 10 mM in DMSO were diluted to 2.5 nM in binding buffer (10 mM HEPES, pH8, 300 mM NaCl, 2% glycerol). A two-fold dilution series of PBP protein was then prepared across 12 wells in binding buffer, with the highest concentration being 21 μM, and the lowest concentration being 17 nM.
10 μl diluted fluorescent peptide (2.5 nM) was added into 12 wells of a 384-Well NBS™ Low Volume Microplate (Fisher Scientific). 10 μl PBP dilution series was then added to the wells containing the fluorescent peptide, and 5 μl binding buffer was added to bring the total volume to 25 μl and the final concentration of peptide tracer to 1 nM. A control well lacking PBP protein was prepared with a final peptide concentration of 1 nM to a final volume of 25 μl in binding buffer. Fluorescence polarisation was measured every 5 minutes for a period of one hour at room temperature. The gain and focal height were optimised using the control well lacking protein. Wells were excited at 485 nm, and emission detection was set at 520 nm.
Data were analysed in GraphPad software to derive values for the dissociation constant. Experiments were repeated at least three times.
Certain peptide ligands of the invention (having a fluorescein appended to the C-terminus with a Sar6-Lysine linker) were tested in the above mentioned binding assay and the results are shown in Table 1 for binding to the indicated PBP: […]

First: A-(SEQ ID NO: 8)-A [BCY9386]
Second: A-(SEQ ID NO: 4)-A [BCY9382]
The Kd of the first is 2.7-fold lower: 870 nM for the first, 2370 nM for the second. The first binds more tightly here.

Going from A-(SEQ ID NO: 3)-A [BCY9381] to A-(SEQ ID NO: 2)-A [BCY9378], the Kd falls from 3950 nM to 80 nM (49-fold).

A-(SEQ ID NO: 12)-A [BCY9391] was tested, and the Kd was 450 nM.

— patent publication US20220281918A1, “PBP BINDING BICYCLIC PEPTIDE LIGANDS” (BicycleTx Limited, priority 2019, published 2022)
